# Only a part is listed here, and it is no random draw. Active and inactive are the calls of the source.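 The calls were made as follows: active = mean inhibition over duplicate tests at 10 µM above 50%; inactive = the rest.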
# Experiment: ASC/caspase-1 reporter retest in S. cerevisiae at one dose, specificity check for NALP1 project (AID 488857)
# Conditions: S. cerevisiae ASC/Caspase-1, beta-galactosidase luminescence, 24 h; at 10 µM; active compounds read high
row,Structure (SMILES),inhibition
1,CCN1CCC(Nc2cccc(F)c2)CC1,inactive: 18.5%
